Experimental data: patent US12617776B2, “Stable salt and crystal forms of 2-[3-({1-[2-(dimethylamino)ethyl]-2-(2,2-dimethylpropyl)-1H-1,3-benzodiazol-5-yl}sulfonyl)azetidin-1-yl]ethan-1-ol” (priority 2020, dated 2026)
Entries after “also recorded” stand apart in the source; their conditions may differ. Where a name gives a salt, the structure may show the parent alone. Read-outs that look alike come from different tables or passages of the source.

Tests used:
[1] = Water activity experiments of AAT-730 HCl salt; assay type: physicochemical; conditions: Aw at most 0.2
Method: Water activity experiments were carried out to determine if the water activity of the solvent influenced which form was isolated. […] A mixture was isolated at Aw at most 0.4 and this may be close to the critical water activity.

[2] = 7 days at 25° C./60% RH, 40° C./75% RH and 70° C./75% RH
[3] = Method: The aliquot volumes were typically 25-100 μL.
From the infrared (IR) transmission data of the sample vials, dissolution and precipitation events were recorded as the point of complete transmission of IR and the onset of turbidity by IR respectively.
Samples were held at ambient temperature for 18 hours to maximize the chance of precipitation. Any recoverable solids were analyzed by XRPD.

[4] = 7 days at 25° C./60% RH, 40° C./75% RH and 70° C./75% RH; remark: listed apart in the source

SMILES | stability in water activity experiments [1] | 1H NMR analysis of post-stressed samples (chemical stability) [2] | XRPD of post-stressed samples (physical form) [2] | (A) - Solvents ([3]; solvent systems in which the salt was soluble in <=50 volumes (>=20 mg/mL) at ambient temperature) | (C) - Anti-solvents ([3]; solvent systems: not soluble in 50 volumes at all temperatures studied) | 1H NMR analysis of post-stressed samples (chemical stability) [4]
CN(C)CCn1c(CC(C)(C)C)nc2cc(S(=O)(=O)C3CN(CCO)C3)ccc21 [AAT-730 HCl salt Pattern 2] | most stable form; also recorded: stable | no change; also recorded: chemically stable | remained as Pattern 2; also recorded: No change in physical form | – | – | –
CN(C)CCn1c(CC(C)(C)C)nc2cc(S(=O)(=O)C3CN(CCO)C3)ccc21 [AAT-730 HCl salt, HCl salt of 2-[3-({1-[2-(dimethylamino)ethyl]-2-(2,2-dimethylpropyl)-1H-1,3-benzodiazol-5-yl}sulfonyl)azetidin-1-yl]ethan-1-ol] | – | – | – | DMSO/water; also recorded: EtOH/water (50:50) | ACN and DCM and EtOH and THF and acetone and acetone/water | no change; also recorded: chemically stable
